Shown are actives, neighbours in structure and some others; about 1.8% of the full set was active somewhere.
RAD52 anneal inh – blocks human RAD52 DNA annealing; recombinant RAD52 DNA annealing, FRET fluorescence; P43351; hit rate 0.46% among 360,000; inhibition, % at 18.7 µM;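 active = every replicate showing at least 50% inhibition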
MLL AF4-AF9 inh – MLL-AF4/AF9 protein interaction inhibition; AID 651704; P42568; hit rate 0.47% among 350,000; AlphaScreen, biotin-AF4 peptide binding to FLAG-AF9; inhibition, % at 10 µM;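 active = every replicate reaching a set inhibition limit, whatever the replicate mean, cut at about 25% in these data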
SIRT5 inh – blocks human SIRT5 desuccinylation of peptide. Purified SirT5, succinyl-peptide AMC, trypsin-coupled fluorescence. inhibition, % at 15 µM. hit rate 1.1% among 330,000; in the data active = inhibition above about 15%
Yeast UUG start – yeast start codon fidelity modulation; actives 0.13% (n = 350,000); activity score, % at 18.7 µM; S. cerevisiae UUG-firefly luciferase reporter, luminescence/redox ratio;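 active = replicate mean at a twofold rise or more, about +100% in these data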;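 note: firefly luciferase made from a UUG start codon reports start codon fidelity; reporter light over untreated wells divided by growth signal over untreated wells; some hits fall short of that in this replicate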
RAD54 inh – RAD54 (human) branch migration inhibition. Q92698. RAD54 Holliday junction branch migration, FAM/BHQ fluorescence. inhibition, % at 10.4 µM. hit rate 0.14% among 360,000;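 active = mean normalized replicate activity at least 40 and at least half of replicates scoring 40 or more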;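 also: inhibitors cause a drop in the FAM fluorescence signal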
E-selectin induc – E-selectin induction on HUVECs; P16581; HUVEC E-selectin immunofluorescence imaging; normalized: neutral wells 0, TNF-alpha wells 100; activation, % at 7.58 µM; hit rate 0.37% among 260,000;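 active = mean E-selectin-positive cell signal at least 10% of the positive control, reached in at least 60% of replicates, without over 20% cell loss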
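System: HUVEC, human umbilical vein endothelial cells; quantity: 3,000 cells/well; buffer or medium: EGM-2 medium, gelatin-coated wells; dosing: single-point compound dose; detection: immunofluorescence imaging; evaluation: % PE-positive cells; benchmarks: TNF-alpha, DMSO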
Of the large screens only hits and unclear results are named; the others gave an inactive call.

CC(C)(CO)CNC(=O)CCc1nnc(Cc2ccc(-c3ccccc3)cc2)o1	SIRT5 inh 25.6 (no result: Yeast UUG start, RAD54 inh, E-selectin induc)
O=C(CCc1nnc(Cc2cccc(C(F)(F)F)c2)o1)NCC(F)(F)F	SIRT5 inh 17.7 (no result: Yeast UUG start, RAD54 inh, E-selectin induc)
COc1cccc(S(=O)(=O)N[C@H]2CC[C@@H](CCNC(=O)Nc3cc(F)ccc3F)O[C@@H]2CO)c1	none
O=c1cc(O)c2sc3nc(-c4ccccc4)cc(C(F)(F)F)c3c2[nH]1	none (no result: RAD52 anneal inh, MLL AF4-AF9 inh, SIRT5 inh, E-selectin induc)
O=c1cc(O)c2sc3nc4c(c(C(F)(F)F)c3c2[nH]1)CCCCC4	SIRT5 inh 16.6 (no result: Yeast UUG start, RAD54 inh)
CN1c2ccc(-c3ccccc3)cc2[C@H]2[C@H](CCN2S(=O)(=O)c2ccccc2F)[C@@H]1CO	none
Cc1cc(C)c(OCC(=O)NCC(C)(C)N2CCOCC2)c(C)c1	SIRT5 inh 30.1
CN(C)C(=O)[C@@H]1[C@@H](CO)[C@@H]2Cn3c(ccc(-c4ccccc4)c3=O)[C@@H]2N1Cc1ccccc1	SIRT5 inh 23.4
CCNC(=O)[C@@H]1[C@@H](CO)[C@@H]2Cn3c(ccc(-c4cccnc4)c3=O)[C@@H]2N1Cc1ccc2c(c1)OCO2	SIRT5 inh 23.3 (no result: Yeast UUG start)
CCN1[C@H](C(=O)NCc2ccccc2)[C@@H](CO)[C@@H]2Cn3c(ccc(-c4ccncc4)c3=O)[C@@H]21	SIRT5 inh 19.5 (no result: Yeast UUG start)
CCCN1[C@H](C(=O)N(C)C)[C@@H](CO)[C@@H]2Cn3c(ccc(-c4ccccc4)c3=O)[C@@H]21	none (no result: Yeast UUG start, RAD54 inh)
CCN1[C@H](C(=O)NCc2ccccc2)[C@@H](CO)[C@@H]2Cn3c(ccc(-c4cccnc4)c3=O)[C@@H]21	none (no result: Yeast UUG start)
COC(=O)C1CCN(Cc2cc(=O)oc3cc(OC)ccc23)CC1	none (no result: RAD52 anneal inh, MLL AF4-AF9 inh, SIRT5 inh, E-selectin induc)
COc1ccc2c(CN3CCCC3)cc(=O)oc2c1	SIRT5 inh 19.2
CCOC(=O)C1CCc2c(ccc3ccccc23)N1CCC#N (stereo unspecified)	SIRT5 inh 34.9
CCOC(=O)C1CCCN(C(=O)c2cccc3ccccc23)C1 (stereo unspecified)	none
C[C@@H]1CN([C@@H](C)CO)C(=O)c2cc(C3=CCCCC3)cnc2O[C@H]1CN(C)C(=O)Nc1ccc(F)cc1	none
O=C(CCn1c2c(c3ccccc31)CCCC2)NNC(=O)c1ccc(Cl)c([N+](=O)[O-])c1	SIRT5 inh 26.9 (no result: Yeast UUG start, RAD54 inh, E-selectin induc)
CCNC(=O)C[C@@H]1C=C[C@@H](NC(=O)C2CC2)[C@H](CO)O1	none
Cc1noc(C)c1S(=O)(=O)Nc1ccc2c(c1)C(=O)N([C@H](C)CO)C[C@H](C)[C@H](CN(C)S(=O)(=O)c1ccc(F)cc1)OCCCC[C@H](C)O2	none
Cc1noc(C)c1S(=O)(=O)Nc1ccc2c(c1)C(=O)N([C@@H](C)CO)C[C@H](C)[C@H](CN(C)S(=O)(=O)c1ccc(F)cc1)OCCCC[C@H](C)O2	RAD52 anneal inh 80.9
Cc1ccc(S(=O)(=O)N(C)C[C@H]2OCCCC[C@@H](C)Oc3ccc(NS(=O)(=O)c4c(C)noc4C)cc3C(=O)N([C@@H](C)CO)C[C@@H]2C)cc1	SIRT5 inh 16.8 (no result: E-selectin induc)
Cc1noc(C)c1S(=O)(=O)Nc1ccc2c(c1)C(=O)N([C@@H](C)CO)C[C@H](C)[C@@H](CN(C)S(=O)(=O)c1ccc(F)cc1)OCCCC[C@@H](C)O2	none (no result: RAD52 anneal inh, Yeast UUG start, RAD54 inh)
Cc1noc(C)c1S(=O)(=O)Nc1ccc2c(c1)C(=O)N([C@H](C)CO)C[C@H](C)[C@@H](CN(C)S(=O)(=O)c1ccc(F)cc1)OCCCC[C@@H](C)O2	RAD52 anneal inh 76.4
Cc1ccc(S(=O)(=O)N(C)C[C@@H]2OCCCC[C@@H](C)Oc3ccc(NS(=O)(=O)c4c(C)noc4C)cc3C(=O)N([C@@H](C)CO)C[C@@H]2C)cc1	none (no result: E-selectin induc)
Cc1noc(C)c1S(=O)(=O)Nc1ccc2c(c1)C(=O)N([C@H](C)CO)C[C@@H](C)[C@H](CN(C)S(=O)(=O)c1ccc(F)cc1)OCCCC[C@@H](C)O2	RAD52 anneal inh 58.6
COc1ccccc1-c1ccc2n(c1=O)C[C@H]1[C@H](CO)[C@@H](C(=O)N(C)C)N(CC3CCOCC3)[C@@H]21	none (no result: Yeast UUG start)
COCC(=O)N1CC(=O)N2[C@H](CO)[C@@H](c3ccc(Br)cc3)[C@@H]2C1	none (no result: Yeast UUG start, RAD54 inh)
C[C@H]1CN([C@@H](C)CO)S(=O)(=O)c2ccc(-c3ccccc3F)cc2O[C@H]1CN(C)Cc1cccnc1	none (no result: Yeast UUG start)
COc1cccc(-c2ccc(C3[C@H]4CNC[C@@H]3N4C(=O)Nc3ccccc3F)cc2)c1 (stereo partly specified)	none (no result: RAD52 anneal inh, MLL AF4-AF9 inh, SIRT5 inh, Yeast UUG start, RAD54 inh)
Cc1noc(C)c1S(=O)(=O)Nc1ccc2c(c1)C(=O)N([C@@H](C)CO)C[C@@H](C)[C@H](CN(C)S(=O)(=O)c1ccc(F)cc1)OCCCC[C@H](C)O2	RAD52 anneal inh 94.4
Cn1c(SCc2nc(-c3ccccc3)no2)nnc1-c1cccs1	none (no result: RAD52 anneal inh, MLL AF4-AF9 inh, SIRT5 inh, E-selectin induc)
Cn1c(SCc2nc(-c3ccc(Cl)cc3)no2)nnc1-c1cccs1	SIRT5 inh 33.2 (no result: MLL AF4-AF9 inh, E-selectin induc)
C[C@H](CO)N1C[C@H](C)[C@H](CN(C)C(=O)C2CCC2)Oc2cc(C#CC3CC3)ccc2S1(=O)=O	none
O=C(O)C[C@@H]1CC[C@H](NC(=O)Nc2cc(F)ccc2F)[C@@H](CO)O1	none
Oc1cccc(/C=C/c2ccc3cccc(O)c3n2)c1	none
Cc1ccc(/C=C/c2ccc3cccc(O)c3n2)s1	MLL AF4-AF9 inh 42.2 (no result: E-selectin induc)
COc1cc2c(cc1OC)C(C)N(C(=O)c1ccc(C)o1)CC2 (stereo unspecified)	SIRT5 inh 22.2
COc1cc2c(cc1OC)C(C)N(C(=O)c1sccc1C)CC2 (stereo unspecified)	none (no result: E-selectin induc)
COc1ccc(S(=O)(=O)N2CCCCCC2)cc1C(=O)N(C)CC(=O)Nc1ccc(F)cc1	SIRT5 inh 20.5
COc1ccccc1OCC(=O)Nc1ccc(S(=O)(=O)N2CCN(C)CC2)cc1	E-selectin induc 333.2
COc1ccccc1OCC(=O)Nc1ccc(S(=O)(=O)N2CCCC2)cc1	none (no result: SIRT5 inh)
COc1ccc(NC(=O)CN(C)C(=O)c2cc(S(=O)(=O)N3CCCCCC3)ccc2OC)cc1	none
COC(=O)C1=C(C(=O)OC)[C@@H]2Nc3ccccc3[C@@]23C[C@@H](C(=O)OC)N(C(=O)CC(C)C)C3=N1	SIRT5 inh 21.3
COc1ccc(OCCOc2ccc(S(=O)(=O)N3CCCC3)cc2[N+](=O)[O-])cc1	SIRT5 inh 27.4 (no result: E-selectin induc)
CN1c2ccc(C#Cc3ccc(F)cc3)cc2[C@@H]2[C@@H](CCN2S(=O)(=O)c2ccccc2F)[C@H]1CO	none
COc1ccc(S(=O)(=O)Nc2ccc3c(c2)C(=O)N([C@@H](C)CO)C[C@H](C)[C@H](CN(C)S(=O)(=O)c2ccc(Cl)cc2)OCCCC[C@@H](C)O3)cc1	SIRT5 inh 22.0
COc1ccc(S(=O)(=O)Nc2ccc3c(c2)C(=O)N([C@@H](C)CO)C[C@H](C)[C@H](CN(C)S(=O)(=O)c2ccc(Cl)cc2)OCCCC[C@H](C)O3)cc1	none

From PubChem BioAssay
